# Assay results as given in patent publication US5030649A, “2-aminoethylamine derivatives, compositions of the same and use of said compounds in medicine” (dated 1991).
# Test: Mouse tail-flick test (analgesic activity, subcutaneous)
# Conditions: subcutaneous in isotonic saline, 30 min after dosing, activity = percent of mice doubling initial reaction time
row,SMILES,MOUSE TAIL-FLICK ED50 SUBCUTANEOUS
1,CN(C(=O)Cc1ccc(Cl)c(Cl)c1)[C@@H](Cc1ccccc1)CN1CCCC1,> 10 mg/kg
2,CN(C(=O)Cc1cccc(C(F)(F)F)c1)[C@H](CN1CCCC1)c1ccccc1,0.097 mg/kg
3,CN(C(=O)Cc1ccc2c(c1)CCCC2)[C@H](CN1CCCC1)c1ccccc1,0.149 mg/kg
